Source: patent US11219664B2, “Composition for diagnosing, preventing, or treating vascular smooth muscle cell proliferative diseases using FGF12” (CHUNG-ANG UNIVERSITY INDUSTRY ACADEMIC COOPERATION …, priority 2015, dated 2022)

System: HPASMC
Assay: FGF12 expression regulation by BMP in HPASMC (RT-PCR, Western blotting)
Format: cell-based, human
Description: Total RNA of cells or tissues for reverse transcription-polymerase chain reaction (RT-PCR) was isolated with TRIzol reagent (Invitrogen). Next, cDNA was synthesized from total RNA using primers specific to corresponding genes and a Superscript first-strand synthesis kit (Invitrogen), and was amplified by PCR (30-35 cycles). Glyceraldehyde-3-phosphate dehydrogenase (GAPDH) was used as a loading control. Real-time PCR was performed using a SYBR-Green PCR master mix (Applied biosystems) and the StepOnePlus™ Real Time PCR System (Applied Biosystems). Data were analyzed according to ΔΔCt method, and gene expression values were normalized to GAPDH expression.
For transfection for FGF12 overexpression, an expression vector (pCMV6-Entry having the c-terminal labeled Myc-DDK) encoding a rat homologous gene (Origene) having 100% amino acid homology with human FGF12 cDNA was used. HASMCs and HPASMCs were transfected with pCMV6-FGF12(pFGF12) or pCMV6-Entry (pEntry) control vector using Lipofectamien™ 2000 according to the protocol of the manufacturer, and selected using G418 (Sigma) for 2 weeks. For the inhibition of FGF12, p53 or BMPR2 expression, subconfluent HASMCs were transfected with specific or non-specific small interfering RNA (siRNA; GE Healthcare) using Lipofectamien™ 2000.
Cell and tissue lysates were separated by SDS-PAGE, and protein bands were transferred on blots. Blots were reacted with appropriate primary antibodies such as FGF12 (Abcam), p-p53 (Cell Signaling Technology), p53 (BD Biosciences), α-SMA (Sigma), SM22α (Abcam), SM-MHC, or β-actin (Santa Cruz biotechnology), followed by treatment with horseradish peroxidase-conjugated secondary antibodies. The protein bands reacted with antibodies were confirmed by a chemiluminescent reagent (Amersham Biosciences).

[1] = 30 ng/ml, 48 hours, western blotting

B1: BMP-2: bone morphogenetic protein, promotes differentiation and inhibits proliferation of vascular smooth muscle cells (protein, UniProt P12643 283-396, looked up)
Bone morphogenetic protein 2: QAKHKQRKRLKSSCKRHPLYVDFSDVGWNDWIVAPPGYHAFYCHGECPFPLADHLNSTNHAIVQTLVNSVNSKIPKACCVPTELSAISMLYLDENEKVVLKNYQDMVVEGCGCR
With B1 as the molecule, how does the FGF12 protein expression [1] read?
The FGF12 protein expression was “increased”.

And the “protein expression of vascular smooth muscle cell differentiation markers (α-SMA, SM22α)” value [1]?
The value was “increased”.

What about the “level of FGF12 mRNA” value (48 hours after addition to basal medium (10 and 30 ng/ml), RT-PCR) of the same molecule?
The value was “significantly increased”.
